The assay concerns the target ECF-T (Lacticaseibacillus paracasei, UniProt Q035B4).

Chains of the proteins cited; added tags and fusions are not shown.
UniProt Q035B4, whole entry: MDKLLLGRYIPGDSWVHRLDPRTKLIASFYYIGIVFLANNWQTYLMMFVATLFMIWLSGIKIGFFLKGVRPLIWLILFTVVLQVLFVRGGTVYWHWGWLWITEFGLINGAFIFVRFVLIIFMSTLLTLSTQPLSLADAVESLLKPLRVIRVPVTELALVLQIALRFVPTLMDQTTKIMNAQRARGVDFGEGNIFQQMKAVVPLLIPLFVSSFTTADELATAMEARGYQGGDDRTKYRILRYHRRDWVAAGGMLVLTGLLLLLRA
UniProt Q035X6, whole entry partner: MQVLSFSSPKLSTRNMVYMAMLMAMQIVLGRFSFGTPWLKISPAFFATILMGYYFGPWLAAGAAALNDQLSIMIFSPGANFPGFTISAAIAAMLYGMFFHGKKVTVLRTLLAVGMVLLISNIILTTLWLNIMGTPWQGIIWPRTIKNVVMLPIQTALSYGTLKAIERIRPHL
UniProt Q035B3, whole entry partner: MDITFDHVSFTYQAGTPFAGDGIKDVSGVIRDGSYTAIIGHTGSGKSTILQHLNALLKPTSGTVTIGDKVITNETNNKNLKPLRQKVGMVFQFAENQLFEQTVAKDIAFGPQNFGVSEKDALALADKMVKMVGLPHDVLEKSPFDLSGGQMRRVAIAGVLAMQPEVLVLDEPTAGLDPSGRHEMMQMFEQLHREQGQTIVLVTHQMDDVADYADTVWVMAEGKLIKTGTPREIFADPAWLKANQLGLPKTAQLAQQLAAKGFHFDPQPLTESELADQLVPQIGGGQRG
UniProt Q035B2, whole entry partner: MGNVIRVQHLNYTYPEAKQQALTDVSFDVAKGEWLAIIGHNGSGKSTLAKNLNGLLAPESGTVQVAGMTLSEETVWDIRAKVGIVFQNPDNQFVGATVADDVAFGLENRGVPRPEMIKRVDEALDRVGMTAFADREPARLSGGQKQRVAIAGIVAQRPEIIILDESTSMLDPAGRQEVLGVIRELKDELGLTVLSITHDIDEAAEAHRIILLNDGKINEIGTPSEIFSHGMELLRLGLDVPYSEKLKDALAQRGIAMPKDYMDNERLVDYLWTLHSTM

By IC50 is commonly meant the concentration that gives 50% inhibition. A high value points to a need for much substance. One may read the % inhibition as the percentage by which the read-out fell short of the control. Low values mean little suppression, high ones strong suppression. `O=C(O)c1cccc(-c2nc(-c3ccc(Cl)c(Cl)c3)c(-c3ccccc3)o2)c1` yielded a half-maximal inhibitory concentration (IC50) of 5.1 µM. Moreover, where the note is “50 µM, Table 2, n ≥ 2, mean ± SD”, the “% inhibition at 50 µM” value is 94.8 ± 3.6%.

These data come from patent publication EP4663242A1, “TARGETING THE ENERGY COUPLING FACTOR (ECF) TRANSPORTERS AS NOVEL ANTIMICROBIAL TARGET” (Helmholtz-Zentrum für Infektionsforschung GmbH, priority 2024, dated 2025).
